The numbers were not newly measured in PMC10955127 (Frontiers in Pharmacology, 2024), which cites them from elsewhere.

Each structure is given as a SMILES string.

For the data set the following is noted: highest dose tested; in vivo 2019-2020, KS1; cited from earlier work.

For the molecule `O=C(OCc1ccccc1)c1ccccc1O` [BSal, benzyl salicylate], the “Developmental Toxicity NOAEL” value was “NOAEL 158-324 mg/kg bw (highest dose tested)” and the “Reproductive toxicity NOAEL” value is “NOAEL 158-324 mg/kg bw (highest dose tested)”.
